Experimental data as given in PubChem BioAssay (NCI).
Some salts or complexes appear as unconnected parts, following the source record.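 Where inhibition never reached the appropriate level, the endpoint shown equals the highest concentration tested. Otherwise, values were interpolated linearly from a five-concentration, 48-hour dose response in 96-well plates. Here, GI50 denotes the concentration required for 50% inhibition of growth. TGI marks complete inhibition of growth.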

Assays:
Test in all cases: DTP human tumour cell line panel, 48 h
NCI-H322M lung = system: NCI-H322M lung
RXF 393 renal = system: RXF 393 renal
HOP-92 NSCLC = system: HOP-92 NSCLC
LOX IMVI melanoma = system: LOX IMVI melanoma
MOLT-4 leukemia = system: MOLT-4 leukemia
786-0 renal = system: 786-0 renal
OVCAR-5 ovarian = system: OVCAR-5 ovarian
NCI-H522 lung = system: NCI-H522 lung
M14 melanoma = system: M14 melanoma
SF-295 CNS = system: SF-295 CNS
UO-31 renal = system: UO-31 renal
SF-268 CNS = system: SF-268 CNS
SF-539 CNS = system: SF-539 CNS
IGROV1 ovarian = system: IGROV1 ovarian
MDA-MB-435 = system: MDA-MB-435
PC-3 prostate = system: PC-3 prostate
MDA-MB-231 breast = system: MDA-MB-231 breast
SNB-75 CNS = system: SNB-75 CNS
TK-10 renal = system: TK-10 renal
SN12C renal = system: SN12C renal
HT29 colon = system: HT29 colon
U251 CNS = system: U251 CNS
HOP-62 NSCLC = system: HOP-62 NSCLC
COLO 205 colon = system: COLO 205 colon
SNB-19 CNS = system: SNB-19 CNS
RPMI-8226 leukemia = system: RPMI-8226 leukemia
OVCAR-8 ovarian = system: OVCAR-8 ovarian
HCC-2998 colon = system: HCC-2998 colon
EKVX NSCLC = system: EKVX NSCLC
HS 578T breast = system: HS 578T breast
DU-145 prostate = system: DU-145 prostate
SK-MEL-5 melanoma = system: SK-MEL-5 melanoma
BT-549 breast = system: BT-549 breast
NCI/ADR-RES ovarian = system: NCI/ADR-RES ovarian
HL-60(TB) leukemia = system: HL-60(TB) leukemia
NCI-H226 lung = system: NCI-H226 lung
A498 renal = system: A498 renal
OVCAR-3 ovarian = system: OVCAR-3 ovarian
OVCAR-4 ovarian = system: OVCAR-4 ovarian
K-562 leukemia = system: K-562 leukemia
SK-MEL-28 melanoma = system: SK-MEL-28 melanoma
SK-OV-3 ovarian = system: SK-OV-3 ovarian
HCT-15 colon = system: HCT-15 colon
MDA-N = system: MDA-N
A549 NSCLC = system: A549 NSCLC
KM12 colon = system: KM12 colon
NCI-H460 lung = system: NCI-H460 lung
MCF7 breast = system: MCF7 breast
SW-620 colon = system: SW-620 colon
SK-MEL-2 melanoma = system: SK-MEL-2 melanoma
ACHN renal = system: ACHN renal
CCRF-CEM leukemia = system: CCRF-CEM leukemia
UACC-257 melanoma = system: UACC-257 melanoma
HCT-116 colon = system: HCT-116 colon
T-47D breast = system: T-47D breast
MALME-3M melanoma = system: MALME-3M melanoma
NCI-H23 lung = system: NCI-H23 lung
UACC-62 melanoma = system: UACC-62 melanoma

CN([PH+](F)F)[PH+](F)F.CN([PH+](F)F)[PH+](F)F.[C-]#[O+].[C-]#[O+].[C-]#[O+].[C-]#[O+].[CH-]=O.[Fe].[Fe]
GI50 (NCI-H322M lung): 2.47 µM
TGI (NCI-H322M lung): 7.59 µM
GI50 (RXF 393 renal): 2.1 µM
TGI (RXF 393 renal): 5.32 µM
GI50 (HOP-92 NSCLC): 1.72 µM
TGI (HOP-92 NSCLC): 6.01 µM
GI50 (LOX IMVI melanoma): 1.44 µM
TGI (LOX IMVI melanoma): 2.78 µM
GI50 (MOLT-4 leukemia): 0.675 µM
TGI (MOLT-4 leukemia): 3.41 µM
GI50 (786-0 renal): 1.36 µM
TGI (786-0 renal): 2.81 µM
GI50 (OVCAR-5 ovarian): 8.33 µM
TGI (OVCAR-5 ovarian): 23 µM
GI50 (NCI-H522 lung): 0.692 µM
TGI (NCI-H522 lung): 2.44 µM
GI50 (M14 melanoma): 2.13 µM
TGI (M14 melanoma): 9.85 µM
GI50 (SF-295 CNS): 1.67 µM
TGI (SF-295 CNS): 4.2 µM
GI50 (UO-31 renal): 4.16 µM
TGI (UO-31 renal): 16.3 µM
GI50 (SF-268 CNS): 1.12 µM
TGI (SF-268 CNS): 7.43 µM
GI50 (SF-539 CNS): 2.15 µM
TGI (SF-539 CNS): 5.02 µM
GI50 (IGROV1 ovarian): 2.46 µM
TGI (IGROV1 ovarian): 11.7 µM
GI50 (MDA-MB-435): 2.1 µM
TGI (MDA-MB-435): 6.96 µM
GI50 (PC-3 prostate): 20.4 µM
TGI (PC-3 prostate): 36.8 µM
GI50 (MDA-MB-231 breast): 1.98 µM
TGI (MDA-MB-231 breast): 4.66 µM
GI50 (SNB-75 CNS): 0.677 µM
TGI (SNB-75 CNS): 4.54 µM
GI50 (TK-10 renal): 4.14 µM
TGI (TK-10 renal): 15.1 µM
GI50 (SN12C renal): 2.12 µM
TGI (SN12C renal): 5.66 µM
GI50 (HT29 colon): 0.584 µM
TGI (HT29 colon): 1.91 µM
GI50 (U251 CNS): 1.88 µM
TGI (U251 CNS): 5.81 µM
GI50 (HOP-62 NSCLC): 2.6 µM
TGI (HOP-62 NSCLC): 11.9 µM
GI50 (COLO 205 colon): 1.5 µM
TGI (COLO 205 colon): 3.22 µM
GI50 (SNB-19 CNS): 3.39 µM
TGI (SNB-19 CNS): 15.3 µM
GI50 (RPMI-8226 leukemia): 0.332 µM
TGI (RPMI-8226 leukemia): 2.04 µM
GI50 (OVCAR-8 ovarian): 2.06 µM
TGI (OVCAR-8 ovarian): 7.2 µM
GI50 (HCC-2998 colon): 2.3 µM
TGI (HCC-2998 colon): 7.46 µM
GI50 (EKVX NSCLC): 2.73 µM
TGI (EKVX NSCLC): 13.2 µM
GI50 (HS 578T breast): 2.49 µM
TGI (HS 578T breast): 13 µM
GI50 (DU-145 prostate): 3.8 µM
TGI (DU-145 prostate): 15.2 µM
GI50 (SK-MEL-5 melanoma): 0.728 µM
TGI (SK-MEL-5 melanoma): 1.85 µM
GI50 (BT-549 breast): 0.94 µM
TGI (BT-549 breast): 2.43 µM
GI50 (NCI/ADR-RES ovarian): 46.8 µM
TGI (NCI/ADR-RES ovarian): > 100 µM
GI50 (HL-60(TB) leukemia): 0.29 µM
TGI (HL-60(TB) leukemia): 1.91 µM
GI50 (NCI-H226 lung): 4.85 µM
TGI (NCI-H226 lung): 20.6 µM
GI50 (A498 renal): 3.12 µM
TGI (A498 renal): 13.1 µM
GI50 (OVCAR-3 ovarian): 0.331 µM
TGI (OVCAR-3 ovarian): 1.34 µM
GI50 (OVCAR-4 ovarian): 1.64 µM
TGI (OVCAR-4 ovarian): 8.77 µM
GI50 (K-562 leukemia): 0.37 µM
TGI (K-562 leukemia): 15.5 µM
GI50 (SK-MEL-28 melanoma): 1.04 µM
TGI (SK-MEL-28 melanoma): 2.49 µM
GI50 (SK-OV-3 ovarian): 3.84 µM
TGI (SK-OV-3 ovarian): 12.4 µM
GI50 (HCT-15 colon): 4.37 µM
TGI (HCT-15 colon): 14.9 µM
GI50 (MDA-N): 1.67 µM
TGI (MDA-N): 3.38 µM
GI50 (A549 NSCLC): 1.91 µM
TGI (A549 NSCLC): 13.6 µM
GI50 (KM12 colon): 0.616 µM
TGI (KM12 colon): 2.37 µM
GI50 (NCI-H460 lung): 1.52 µM
TGI (NCI-H460 lung): 5.86 µM
GI50 (MCF7 breast): 1.04 µM
TGI (MCF7 breast): 4.35 µM
GI50 (SW-620 colon): 1.71 µM
TGI (SW-620 colon): 6.07 µM
GI50 (SK-MEL-2 melanoma): 1.48 µM
TGI (SK-MEL-2 melanoma): 3.18 µM
GI50 (ACHN renal): 5.02 µM
TGI (ACHN renal): 18 µM
GI50 (CCRF-CEM leukemia): 0.366 µM
TGI (CCRF-CEM leukemia): > 100 µM
GI50 (UACC-257 melanoma): 1.76 µM
TGI (UACC-257 melanoma): 5.77 µM
GI50 (HCT-116 colon): 2.02 µM
TGI (HCT-116 colon): 6.41 µM
GI50 (T-47D breast): 1.47 µM
TGI (T-47D breast): 12.4 µM
GI50 (MALME-3M melanoma): 1.38 µM
TGI (MALME-3M melanoma): 3.61 µM
GI50 (NCI-H23 lung): 1.45 µM
TGI (NCI-H23 lung): 7.44 µM
GI50 (UACC-62 melanoma): 2.43 µM
TGI (UACC-62 melanoma): 12 µM
